Earlier results as cited in patent US20070281910A1, “Salicyl alcohol creatine phosphate prodrugs, compositions and uses thereof” (XenoPort, Inc., priority 2006, published 2007).

Conditions: ALS patients

In the case of `Nc1nc2ccc(OC(F)(F)F)cc2s1` [riluzole], the “extension of survival in ALS” value is given as “about three”.
